In US11168179B2, “Macromolecular transition metal complexes for treatment of cancer and process for their preparation” (FACULDADE DE CIÉNCIAS DA UNIVERSIDADE DE LISBOA, priority 2014, dated 2021):

Tests used:
[1] = 5% DMSO : 95% cell medium, >24 h
[2] = system: MDA-MB-231 human breast carcinoma cells; experiment: MTT cell viability assay, MDA-MB-231; conditions: 72 h incubation; micromolar range
Procedure: (§1) The cultures of human breast (MDA-MB-231; ATCC) and ovarian (A2780, ATCC) carcinoma cell lines, were carried out in DMEM (Gibco) medium containing GlutaMax I (MDA-MB-231) or RPMI (A2780) and were completed with 10% FBS and 1% penicillin-streptomycin and kept at 37° C. in a humidified atmosphere containing 5% de CO2.
(§2) The cell culture was made in flasks containing the medium appropriate to cell proliferation and allowing cell adhesion.
(§3) Upon reaching the required confluence, the cells were harvested through addition of a 0.05% trypsin-EDTA solution (Gibco®). […] For this, the cells were seeded in 200 μl of complete cell medium in 96-well plates. Cell density was 2×10^4 viable cells (MDA-MB-231 and A2780) per well.
Cells were left to adhere for 24 h, followed by the addition of various dilutions in medium (200 μl) of the test compound. The test compound was first solubilized in DMSO and then in the cell medium and added to the cells at concentrations 1-100 μM. The final DMSO concentrations in the medium were lower than 0.5%. After 24 h and 72 h incubation, 37° C./5% CO2, the medium was substituted by 200 μl of the MTT solution (0.5 mg/ml in phosphate buffer—PBS). […] Cell viability was assessed measuring the absorbance at 570 nm, using a plate spectrophotometer. […]

[3] = system: MCF-7 breast adenocarcinoma cells; experiment: MTT cell viability assay, MCF-7; conditions: for cytotoxic activity against MCF-7 (dose-response curves): 24 h and 72 h incubation, 1-100 μM, micromolar range; for cytotoxic activity against MCF-7: 48 h of incubation
Procedure: as §2
For this, the cells were seeded in 200 μl of complete cell medium in 96-well plates.
Cells were left to adhere for 24 h, followed by the addition of various dilutions in medium (200 μl) of the test compound. The test compound was first solubilized in DMSO and then in the cell medium and added to the cells at concentrations 1-100 μM. The final DMSO concentrations in the medium were lower than 0.5%. After 24 h and 72 h incubation, 37° C./5% CO2, the medium was substituted by 200 μl of the MTT solution (0.5 mg/ml in phosphate buffer—PBS). After 3-4 h incubation, the MTT solution was removed and the formazan crystals formed by the viable cells were dissolved in DMSO (200 μl). […] The cytotoxicity of the test compound was quantified calculating the drug concentration that inhibits the growth of 50% of cells (IC50) (GraphPad Prism software). The assessment was carried out with at least two independent experiments, each comprising six replicates per concentration.
(§4) Upon reaching the required confluence, the cells were harvested through addition of a 0.05% trypsin-EDTA solution (Gibco®). […] For this, the cells were seeded in 200 μl of complete cell medium in 96-well plates. […] Cells were left to adhere for 24 h, followed by the addition of various dilutions in medium (200 μl) of the test compound. The test compound was first solubilized in DMSO and then in the cell medium and added to the cells at concentrations 1-100 μM. The final DMSO concentrations in the medium were lower than 0.5%.

[4] = system: A2780 ovarian carcinoma cells; experiment: MTT cell viability assay, A2780; conditions: for cytotoxic activity against A2780 (dose-response curves): 72 h incubation, micromolar range; for cytotoxic activity against A2780: 48 h of incubation
Procedure: as §1, §2, §3
Cells were left to adhere for 24 h, followed by the addition of various dilutions in medium (200 μl) of the test compound. The test compound was first solubilized in DMSO and then in the cell medium and added to the cells at concentrations 1-100 μM. The final DMSO concentrations in the medium were lower than 0.5%. After 24 h and 72 h incubation, 37° C./5% CO2, the medium was substituted by 200 μl of the MTT solution (0.5 mg/ml in phosphate buffer—PBS). After 3-4 h incubation, the MTT solution was removed and the formazan crystals formed by the viable cells were dissolved in DMSO (200 μl). Cell viability was assessed measuring the absorbance at 570 nm, using a plate spectrophotometer.
The cytotoxicity of the test compound was quantified calculating the drug concentration that inhibits the growth of 50% of cells (IC50) (GraphPad Prism software). The assessment was carried out with at least two independent experiments, each comprising six replicates per concentration. Dose-response curves of cell viability, after a 72 h incubation, are represented in the graphs of the FIGS. 4a and 4b.
as §4

[5] = system: melanoma A345 cells; conditions: 48 h of incubation
[6] = system: glioma U87 cells; conditions: 48 h of incubation

| Substance | chemical stability in aqueous medium: relative variation (%) of the absorbance at fixed wavelength over time [1] | cytotoxic activity against MDA-MB-231 (dose-response curves) [2] | cytotoxic activity against MCF-7 (dose-response curves) [3] | cytotoxic activity against A2780 (dose-response curves) [4] | cytotoxic activity against A345 melanoma [5] | cytotoxic activity against U87 glioma [6] | cytotoxic activity against MCF-7 [3] | cytotoxic activity against A2780 [4] |
| --- | --- | --- | --- | --- | --- | --- | --- | --- |
| (2,2′-bipyridine-4,4′-diylbis{methylene}bis(2-{2-(2-hydroxypropanoyloxy)poly(lactic acid)-yl}propanoate)-k^2N,N′)(carbonyl)η^5-cyclopentadienyl)ruthenium(II) hexafluorophosphate [Compound 1] | appropriate chemical stability |  |  |  |  |  |  |  |
| (2,2′-bipyridine-4,4′-diylbis{methylene}bis(2-{2-(2-hydroxypropanoyloxy)poly(lactic acid)-yl}propanoate)-k^2N,N′)(triphenylphosphane)(η^5-cyclopentadienyl)ruthenium(II) triflate [Compound 5] | appropriate chemical stability | cytotoxic | cytotoxic | cytotoxic |  |  |  |  |
| [1,1′-{1,1′-(1,1′-{2,2′-bipyridine-4,4′-diylbis(methylene)}bis(oxy)bis(1-oxopropane-2,1-diyl))bis(poly(lactic acid)-yl))}bis(oxy)bis(1-oxopropane-2,1-diyl)dianthracene-9-carboxylate)-k^2N,N′](triphenylphosphane)(η^5-cyclopentadienyl)ruthenium(II))triflate [Compound 3] | appropriate chemical stability |  |  |  | most active | most active | most active | most active |
| [(1,1′-{1,1′-(1,1′-{2,2′-Bipyridine-4,4′-diylbis(methylene)}bis(oxy)bis(1-oxopropane-2,1-diyl))bis(poly(lactic acid)-yl))}bis(oxy)bis(1-oxopropane-2,1-diyl)di(2S,3S,4S,5R,6R)-3,4,5,6-tetrahydroxyoxane-2-carboxylate)-k^2N,N′](triphenylphosphane)(η^5-cyclopentadienyl)-ruthenium(II) triflate [Compound 6] | appropriate chemical stability | cytotoxic | cytotoxic | cytotoxic |  |  |  |  |
| [(1,1′-{1,1′-(1,1′-{2,2′-bipyridine-4,4′-diylbis(methylene)}bis(oxy)bis(1-oxopropane-2,1-diyl))bis(poly(lactic acid)-yl))}bis(oxy)bis(1-oxopropane-2,1-diyl)dianthracene-9-carboxylate)-k^2N,N′](carbonyl)(η^5-cyclopentadienyl)ruthenium(II) hexafluorophosphate [Compound 2] | appropriate chemical stability |  |  |  |  |  |  |  |
| [(1,1′-{1,1′-(1,1′-{2,2′-bipyridine-4,4′-diylbis(methylene)}bis(oxy)bis(1-oxopropane-2,1-diyl))bis(poly(lactic acid)-yl))}bis(oxy)bis(1-oxopropane-2,1-diyl)dinaphthalene-2-carboxylate)-k^2N,N′](triphenylphosphane)(η^5-cyclopentadienyl)ruthenium(II) triflate [Compound 4] | appropriate chemical stability |  |  |  | most active | most active | most active | most active |
